Patent US20240122990A1, “COMPOSITIONS AND METHODS FOR CARDIOMYOCYTE TRANSPLANTATION” (UNIVERSITY OF WASHINGTON, priority 2021, published 2024)

System: riPSC-CM cardiomyocyte grafts
Assay: Allogeneic rhesus iPSC-CM transplantation into MHC-mismatched rhesus recipients, histopathological immune rejection of the graft
Format: in vivo, rhesus macaque (Macaca mulatta)
Settings: subcutaneous ABT alone, 12.5 mg/kg biweekly; 8 weeks post-transplant; 200×10^6 riPSC-CMs
Excerpt: FIG. 1. Histological analysis showing that without immunosuppression, cardiomyocyte grafts survived for 2 weeks without rejection, but by 8 weeks they underwent severe cellular rejection with extensive inflammatory infiltration.
Pluripotent stem cell-derived cardiomyocyte (PSC-CM) transplantation is an emerging strategy to treat recent myocardial infarction (MI). […] To identify a minimal, steroid-sparing immunosuppression regimen for first-in-human allogeneic transplantation, a non-human primate (NHP) model was developed where rhesus iPSC-CM are transplanted into normal or infarcted hearts of MHC-mismatched recipients. Allogeneic iPSCs derived from rhesus macaque (Macaca mulatta) were differentiated into a highly enriched population of cardiomyocytes (riPSC-CMs). 200×10^6 riPSC-CMs were transplanted into 11 MHC-mismatched rhesus recipients. The primary study endpoint was the degree of histopathological immune rejection. In the absence of immunosuppression, cardiomyocyte grafts survived for 2 weeks without rejection, but by 8 weeks they underwent severe cellular rejection with extensive inflammatory infiltration by CD3+ T cells and CD20+ B cells leading to graft destruction. Subsequent studies focused on 8-week engraftment, with promising regimens studied further out to 16 weeks. […]

Substance: Abatacept: fusion protein of a modified Fc region of IgG1 fused to the extracellular domain of CTLA-4
- degree of histopathological immune rejection of the graft: moderate to severe rejection
